Results reported in ChEMBL document CHEMBL1649421, “New drug-like hydroxyphenylnaphthol steroidomimetics as potent and selective 17β-hydroxysteroid dehydrogenase type 1 inhibitors for the treatment of estrogen-dependent diseases” (J Med Chem, 2011).

What was measured:
[1] = species on record: Homo sapiens; assay: Selectivity ratio of IC50 for human placental 17beta-HSD2 to IC50 for human placental 17beta-HSD1
[2] = target: T1, 17-beta-hydroxysteroid dehydrogenase type 1 (Homo sapiens, UniProt P14061); assay: Displacement of [3H]E1 from human placental 17beta-HSD1 after 10 mins by fluid scintillation counting
T1 sequence (P14061 whole entry): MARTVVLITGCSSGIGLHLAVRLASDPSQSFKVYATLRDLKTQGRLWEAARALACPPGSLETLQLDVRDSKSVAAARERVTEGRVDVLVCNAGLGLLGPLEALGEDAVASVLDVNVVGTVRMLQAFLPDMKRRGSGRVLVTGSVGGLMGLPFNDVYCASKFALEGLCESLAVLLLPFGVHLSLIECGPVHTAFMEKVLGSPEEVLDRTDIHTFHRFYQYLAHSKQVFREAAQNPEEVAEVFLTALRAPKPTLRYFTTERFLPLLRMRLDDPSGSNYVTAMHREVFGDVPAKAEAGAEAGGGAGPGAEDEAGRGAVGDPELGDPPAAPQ

[3] = target: T1, 17-beta-hydroxysteroid dehydrogenase type 1; assay: Displacement of [3H]E1 from 17beta-HSD1 in human T47D cells after 10 mins by fluid scintillation counting; assay type: cell-based
[4] = target: T2, 17-beta-hydroxysteroid dehydrogenase type 2 (Homo sapiens, UniProt P37059); assay: Displacement of [3H]E2 from human placental 17beta-HSD2 after 10 mins by fluid scintillation counting
T2 sequence (P37059 whole entry): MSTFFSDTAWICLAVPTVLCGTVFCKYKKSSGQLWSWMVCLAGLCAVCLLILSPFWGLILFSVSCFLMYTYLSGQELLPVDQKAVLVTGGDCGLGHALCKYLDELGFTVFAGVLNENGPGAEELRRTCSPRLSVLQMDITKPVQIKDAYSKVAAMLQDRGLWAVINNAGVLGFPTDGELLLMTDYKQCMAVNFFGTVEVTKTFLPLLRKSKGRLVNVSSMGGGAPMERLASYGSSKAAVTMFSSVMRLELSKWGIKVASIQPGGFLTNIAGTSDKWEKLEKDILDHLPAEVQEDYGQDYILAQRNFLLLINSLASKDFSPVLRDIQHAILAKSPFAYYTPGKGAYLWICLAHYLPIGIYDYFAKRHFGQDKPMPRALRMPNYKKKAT

Nc1cccc(-c2c(O)ccc3cc(-c4cccc(O)c4)ccc23)c1
Ratio IC50 [1]: 33

COc1ccc(-c2c(O)ccc3cc(-c4cccc(O)c4)ccc23)cn1
IC50 [2]: 33 nM | Ratio IC50 [1]: 16 | IC50 [3]: 670 nM

Oc1cccc(-c2ccc3c(-c4ccncc4)c(O)ccc3c2)c1
IC50 [4]: 3340 nM | Ratio IC50 [1]: 52
